Assay results published in patent US10167270B2, “Substituted quinazoline compounds and uses thereof for modulating glucocerebrosidase activity” (Northwestern University, priority 2015, dated 2019).
Like-named read-outs stand apart in the source and are kept apart here.

Chains of the proteins cited; added tags and fusions are not shown. Residues count along the entry.
UniProt P04062, 40-536: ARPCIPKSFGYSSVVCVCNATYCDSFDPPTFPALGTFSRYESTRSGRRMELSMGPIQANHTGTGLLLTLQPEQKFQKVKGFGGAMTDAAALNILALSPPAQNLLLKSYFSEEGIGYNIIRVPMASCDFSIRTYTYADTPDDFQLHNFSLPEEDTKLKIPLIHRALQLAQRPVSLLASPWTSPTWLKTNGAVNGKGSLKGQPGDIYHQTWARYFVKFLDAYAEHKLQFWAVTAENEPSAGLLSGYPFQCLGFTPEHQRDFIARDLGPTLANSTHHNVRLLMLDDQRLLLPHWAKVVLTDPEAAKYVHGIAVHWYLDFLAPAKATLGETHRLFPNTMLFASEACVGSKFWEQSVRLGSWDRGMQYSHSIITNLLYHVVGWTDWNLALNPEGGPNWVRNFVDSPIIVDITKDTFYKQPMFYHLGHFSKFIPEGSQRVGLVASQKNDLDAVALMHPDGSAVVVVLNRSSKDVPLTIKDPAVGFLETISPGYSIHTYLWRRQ

Assays:
Glucocerebrosidase = Glucocerebrosidase (Homo sapiens (Human), UniProt P04062); experiment: Glucocerebrosidase activity assay with blue substrate (4MU-Glc); type: biochemical; details: marked (inh), inhibitor; read-out: IC50 or AC50 (inh)
Protocol: The compounds in DMSO solution 0.5 μL/well were transferred to a black 96-well plate. The final titration was 24 nM to 50 μM, 12 concentrations, 2 times dilution. 33.5 μL of enzyme solution (7.5 nM final concentration) was transferred to the wells. After 5 min of incubation at room temperature, the enzyme reaction was initiated by the addition of 33 μL/well blue substrate. Final concentrations of the blue substrate (4MU-Glc) was 1.5 mM. The blue substrate reaction was terminated by the addition of 33 μL/well stop solution (1 M NaOH and 1 M glycine mixture, pH 10) after 30 min of incubation at 37° C. The fluorescence was then measured in the Biotek Synergy H1 multi-mode plate reader with Ex=365 nm and Em=440 nm.
Additional compounds were prepared and tested according to the procedures provided in the examples above. Dose-response curves were prepared to determine IC50 or AC50 and compared to the known glucocerebrosidase activator NCGC00188758 (see Aflaki et al., Sci. Transl. Med. 6, 240ra273 (2014). Results are shown in the following table.
Additional substituted quinazoline compounds were prepared and tested according to the procedures provided in the examples above.

wild-type GCase = wild-type GCase (Homo sapiens (Human), UniProt P04062); experiment: GCase enzyme activity assay (4MU-β-Glc, no taurocholate); type: biochemical
Protocol: In previous studies, high concentrations of taurocholate (4-10 mM) were used to improve the signal in GCase enzyme activity assays^16,27,28. […] Here we describe our modifications of the substituents on the quinazoline ring.
4-Methylumbelliferyl β-D-glucopyranoside (4MU-β-Glc), 4-methylumbelliferyl α-D-glucopyranoside,4-methylumbelliferyl α-D-galactopyranoside, and buffer components were purchased from Sigma-Aldrich (St. Louis, Mo.). The recombinant wild-type GCase enzyme velaglucerase alfa (Vpriv®, Shire Human Genetic Therapies, Inc.), acid α-glucosidase enzyme alglucosidase alfa (Lumizyme®, Genzyme Corporation), α-galactosidase A enzyme agalsidase beta (Fabrazyme®, Genzyme Corporation) were used in activity assays. […] A solution of 1 M sodium hydroxide and 1 M glycine (pH 10) was used as the stop solution for all three enzyme activity assays.
The compounds in DMSO solution (0.5 μL/well) were transferred to a black 96-well plate (the final titration started from 100 μM, a 12 or 24-point 2-fold dilution series). […] After 5 min of incubation at room temperature, the enzyme reaction was initiated by the addition of blue substrate (4MU-13-Glc) (33 μL/well). The final concentration of the blue substrate was 1.5 mM. The blue substrate reaction was terminated by the addition of 33 μL/well stop solution (1 M NaOH and 1 M glycine mixture, pH 10) after 30 min of incubation at 37° C. […]

c1cncc(-c2nc(NC3CCc4ccccc4C3)c3ccccc3n2)c1 (single isomer, unassigned) [compound 80]
IC50 (Glucocerebrosidase): 6 nM

c1cncc(-c2nc(N[C@@H]3CCc4ccccc4C3)c3ccccc3n2)c1 [Compound 9b]
IC50 (wild-type GCase; pH 5.0, mean ± SD, read-out: IC50 pH 5.0): 30.1 ± 4.5 nM | IC50 (wild-type GCase; pH 7.0, mean ± SD, read-out: IC50 pH 7.0): 18.8 ± 2.5 nM

c1cncc(-c2nc(NC3CCc4ccccc4C3)c3ccccc3n2)c1 (centres unmarked) [compound 66]
IC50 (Glucocerebrosidase): 6 nM

c1cncc(-c2nc(N[C@@H]3CCc4ccccc4C3)c3ccccc3n2)c1 [compound 81]
IC50 (Glucocerebrosidase): 10 nM
